Measurements: patent publication US20230391892A1

What was measured:
TGF-β1 (human) [1] = molecular target: TGF-β1 (human) (UniProt P01137)
TGF-β3 (human) = TGF-β3 (human) (UniProt P10600)
TGF-β1 (human) [2] = molecular target: TGF-β1 (human) (UniProt P01137); experiment: BLI (Octet RED96), antagonist captured on biosensor, ligand in solution

Row | IC50; neutralisation of TGF-β1 (1 nM) signalling, C2C12-CAGA-luc Smad2/3 luciferase reporter cells (RLU) (TGF-β1 (human) [1]) | IC50; neutralisation of TGF-β3 (1 nM) signalling, C2C12-CAGA-luc Smad2/3 luciferase reporter cells (RLU) (TGF-β3 (human)) | Kd (TGF-β1 (human) [2]) | Substance
1 | 1900 pM | 100 pM |  | A120 (from UniProt P0DOX7 1-214)
2 |  |  | 507 pM | A120 (from UniProt P0DOX7 1-214) (other; other documents disagree on this pair)
